The Tmax is the time from dosing to the highest level.

We go through one compound from patent publication US12251382B2, “Substituted amino-pyrimidine compound for use in a method for treatment and prevention of multiple sclerosis” (Merck Patent GmbH, priority 2018, dated 2025).

Molecules are shown by their SMILES.

The nature of data set [1]: Phase I Part 1: plasma pharmacokinetics after single oral dose. Conditions: for CL/F: geometric mean; for Tmax: median. In kind it is in vivo, human. Here is the method:
(§1) PK analysis was performed in all subjects who received at least one dose of evobrutinib and had at least one primary PK parameter evaluable by non-compartmental methods using PHOENIX® WINNONLIN® Version 6.3 (Certara LP, Princeton, N.J., US). Serial blood samples were obtained on Day 1 pre-dose and 0.25, 0.5, 1.0, 1.5, 2, 2.5, 3, 4, 5, 6, 8, 12, 16, 24 (Day 2), 36 (Day 2), and 48 h (Day 3) post-dose during Part 1, and used to prepare plasma samples for evobrutinib PK analysis. A similar sampling schedule was undertaken in Part 2 on Days 1 and 14, with additional trough samples obtained on Days 5, 8, 11, as well at Day 17 and 18.
(§2) PK samples were analyzed by Quintiles Bioanalytical and ADME Laboratory (Ithaca, N.Y., USA) using a validated bioanalytical liquid chromatographic assay with tandem mass spectrometric detection (UPLC-MS/MS) to determine evobrutinib concentration; the LLOQ of the assay was 0.1 ng/mL. Plasma evobrutinib concentrations and PK parameters were summarized descriptively. To test dose proportionality, PK parameters were analyzed graphically as AUC/dose and Cmax/dose and via a power model (PK parameter=α*dose^β) approach with log-transformed PK parameters as the dependent variable and log-transformed dose as the independent variable. Accumulation of evobrutinib and time dependency of PK parameters were evaluated for each dose level during Part 2 using a linear mixed-effect analysis of variance for log-transformed PK parameters with a fixed-repeated effect for day and random effect for subject.

Data set [2] in a line: Phase I Part 2: plasma pharmacokinetics Day 1 and Day 14 of once daily dosing. In kind it is in vivo, human. The following applies: for CL/F: geometric mean. The procedure:
as §1, §2

The test system of data set [3] is human patients suffering from relapsing multiple sclerosis (RMS). The data set can be described thus: Phase II RMS study: brain MRI (Gd+ T1 lesions, T2 lesions). In kind it is in vivo. Here is the method:
(§3) This study was designed to examine the effects of evobrutinib in human patients suffering from relapsing multiple sclerosis (RMS) in a phase II clinical study. The study was conducted as a randomized, double-blind, placebo-controlled study in subjects with RMS, with a parallel, open-label active control group (Tecfidera) involving 5 treatment groups with 3 doses of evobrutinib, placebo, and active control (Tecfidera). The assessing Investigator and central MRI reader were treatment blinded.
(§4) The study consisted of 4 major periods: (i) a Screening period of 4 weeks, (ii) active treatment with 3 dose groups of evobrutinib, active control (Tecfidera), or placebo for 24 weeks, (iii) a 24-week extension on active treatment with evobrutinib or active control (Tecfidera) for 24 weeks, where subjects on placebo were switched to evobrutinib, and (iv) an optional OLE Period. At the end of the 48-week main study, subjects were in 1 of 4 treatment groups (evobrutinib 25 mg daily, 75 mg once daily, or 75 mg twice daily or Tecfidera). The study protocol specified that (i) all subjects who choose to enter the OLE were to be switched to active treatment with evobrutinib at a dose of 75 mg once daily or to the eventual Phase III dose when decided, (ii) subjects transitioning from Tecfidera were to complete a washout period of at least 4 weeks prior to initiating evobrutinib treatment in the OLE Period, (iii) following completion or early termination of treatment, subjects were to return after 4 weeks for safety evaluation, and (iv) placebo subjects were to be switched to the 25 mg evobrutinib once daily dose after Week 24. Patients switching from the reference arm (dimethyl fumarate) to evobrutinib at week 48 were to undergo a 4-8 week washout.
(§5) The protocol specified that subjects received 25 mg once daily, 75 mg once daily, or 75 mg twice daily evobrutinib or placebo administered as tablets for 168 days. To maintain blinding for placebo and evobrutinib, subjects self-administered study medication at a schedule similar to the 75 mg evobrutinib twice daily dosing schedule (i.e., 3 tablets twice daily). At the end of the 24-week treatment period, the placebo group was to be switched to evobrutinib at a dose of 25 mg once daily; however, flexibility was maintained to allow adjusting this dose based on data from the primary analysis.
The protocol specified that subjects self-administered the IMP at a set time each day (every 12 hours ±2 hours). Subjects were to take their daily dose more than 1 hour prior to a meal or snack and more than 2 hours after a meal or snack. Clear fluids were allowed at any time. On trial visit days, the IMP was to be administered during the trial visit after the scheduled trial visit procedures (other than post-treatment PK/PD sampling) are completed.
Eligible subjects were randomized 1:1:1:1:1 to treatment with placebo, low-dose evobrutinib (25 mg once daily), mid-dose evobrutinib (75 mg once daily), high-dose evobrutinib (75 mg twice daily), or Tecfidera (administered twice daily at a final dose of 240 mg), through a central randomization process by an IWRS prior to dosing on Day 1. Stratification occurred by region (USA or Western Europe, Eastern Europe and BTKO capable, Eastern Europe and not BTKO capable, and RoW). For the first 7 days, Tecfidera was administered orally at 120 mg twice daily. Following this and for the duration of treatment, Tecfidera was administered orally at 240 mg twice daily. All subjects who choose to enter the OLE Period were to receive open-label evobrutinib 75 mg once daily or the eventual Phase III dose.
The protocol specified that MRI scans were to be performed at Screening, at 4-week intervals from Week 12 to 24, and at the End of Treatment Visit at Week 48 (including for subjects receiving Tecfidera who choose to enter the OLE Period). […]

Data set [4] shares this test system. In words: Phase II RMS study: qualified relapse assessment (ARR, relapse-free status). In kind it is in vivo. Conditions: for Qualified relapse rate ratio based on NB model (vs placebo): 24 weeks; for Odds ratio of being relapse-free vs placebo, based on logistic model: Week 24. The procedure:
as §3, §4, §5
Subjects were assessed for MS relapse at visits beginning at Week 4. Relapse was also assessed at any Unscheduled Visit for Neurological Worsening and Relapse Assessment. For subjects in the OLE Period, MS relapse was assessed at all visits. A qualifying relapse was defined as new, worsening or recurrent neurological symptoms attributed to MS that last for at least 24 hours without fever or infection, or adverse reaction to prescribed medication, preceded by a stable or improving neurological status of at least 30 days. The relapse must have been accompanied by new clinical signs (i.e., changes in the neurological examination or an increase in EDSS score).
The protocol specified that all cases of potential relapse were to be objectively confirmed by the Investigator regardless of whether they were identified during a scheduled or unscheduled visit. Any assessments needed to confirm the relapse were to be performed, and details of the relapse were to be documented within the relevant section(s) of the eCRF.
Key secondary endpoints to evaluate the efficacy and safety of evobrutinib compared to placebo were: • Annualized relapse rate (ARR), based on protocol-defined qualified relapses, at Week 24 • Qualified relapse-free status at Week 24 • Change from Baseline in EDSS at Week 24 • Safety as assessed by the nature, severity, and occurrence of AEs; vital signs; ECGs; absolute concentrations and change from Baseline in Ig levels; absolute numbers and change from Baseline in B cells; and clinical laboratory safety parameters (duration of placebo treatment group limited to 24 weeks). Additional Secondary Endpoints […]

Turning to `C=CC(=O)N1CCC(CNc2ncnc(N)c2-c2ccc(Oc3ccccc3)cc2)CC1` [Evobrutinib, 1-(4-(((6-amino-5-(4-phenoxyphenyl)pyrimidin-4-yl)amino)methyl)piperidin-1-yl)prop-2-en-1-one], in data set [1] (humans), the “Time to peak concentrations” value was roughly 0.5 h. The CL/F in data set [1] (single dose 25 mg) is listed as 4,000 mL/min; in data set [1] (single dose 50 mg), 2,550 mL/min; in data set [1] (single dose 100 mg), 3,840 mL/min; in data set [1] (single dose 200 mg), 3,900 mL/min; in data set [1] (single dose 350 mg), 3,050 mL/min; in data set [1] (single dose 500 mg) it was 2,590 mL/min. Moreover, the CL/F in data set [2] (multiple-dose study Day 1, 25 mg) is 3,390 mL/min; in data set [2] (multiple-dose study Day 1, 200 mg), 3,000 mL/min. In addition, the Tmax in data set [1] (single dose 25 mg) was determined as 48 min; in data set [1] (single dose 350 mg), 60 min; in data set [2] (multiple-dose study Day 1, 25 mg, median) it was 30 min. The “Gd+ T1 Lesion Rate Ratio vs placebo (negative binomial model)” value turned out to be 1.54 in data set [3] (25 mg QD), 0.48 in data set [3] (75 mg BID) and 0.38 in data set [3] (75 mg QD). In addition, the “New or enlarging T2 Lesion Rate Ratio vs placebo (negative binomial model)” value in data set [3] (25 mg QD) was found to be 1.32; in data set [3] (75 mg BID), 0.44; in data set [3] (75 mg QD), 0.53. Also, the “Qualified relapse rate ratio based on NB model (vs placebo)” value worked out at 1.75 in data set [4] (25 mg QD), 0.26 in data set [4] (75 mg BID) and 0.36 in data set [4] (75 mg QD). For the same compound, the “Odds ratio of being relapse-free vs placebo, based on logistic model” value in data set [4] (25 mg QD) is 0.76; in data set [4] (75 mg BID), 1.83; in data set [4] (75 mg QD), 2.43.
